From US7683097B2, “Topoisomerase inhibitors” (Propharmacon Inc., priority 2004, dated 2010) come the findings set out here.

Protein sequences, listed by entry. Tags and fused reporters are not part of them. Lines headed by an entry give the natural chain unless they say otherwise; changes in a name come on top.
UniProt P11388: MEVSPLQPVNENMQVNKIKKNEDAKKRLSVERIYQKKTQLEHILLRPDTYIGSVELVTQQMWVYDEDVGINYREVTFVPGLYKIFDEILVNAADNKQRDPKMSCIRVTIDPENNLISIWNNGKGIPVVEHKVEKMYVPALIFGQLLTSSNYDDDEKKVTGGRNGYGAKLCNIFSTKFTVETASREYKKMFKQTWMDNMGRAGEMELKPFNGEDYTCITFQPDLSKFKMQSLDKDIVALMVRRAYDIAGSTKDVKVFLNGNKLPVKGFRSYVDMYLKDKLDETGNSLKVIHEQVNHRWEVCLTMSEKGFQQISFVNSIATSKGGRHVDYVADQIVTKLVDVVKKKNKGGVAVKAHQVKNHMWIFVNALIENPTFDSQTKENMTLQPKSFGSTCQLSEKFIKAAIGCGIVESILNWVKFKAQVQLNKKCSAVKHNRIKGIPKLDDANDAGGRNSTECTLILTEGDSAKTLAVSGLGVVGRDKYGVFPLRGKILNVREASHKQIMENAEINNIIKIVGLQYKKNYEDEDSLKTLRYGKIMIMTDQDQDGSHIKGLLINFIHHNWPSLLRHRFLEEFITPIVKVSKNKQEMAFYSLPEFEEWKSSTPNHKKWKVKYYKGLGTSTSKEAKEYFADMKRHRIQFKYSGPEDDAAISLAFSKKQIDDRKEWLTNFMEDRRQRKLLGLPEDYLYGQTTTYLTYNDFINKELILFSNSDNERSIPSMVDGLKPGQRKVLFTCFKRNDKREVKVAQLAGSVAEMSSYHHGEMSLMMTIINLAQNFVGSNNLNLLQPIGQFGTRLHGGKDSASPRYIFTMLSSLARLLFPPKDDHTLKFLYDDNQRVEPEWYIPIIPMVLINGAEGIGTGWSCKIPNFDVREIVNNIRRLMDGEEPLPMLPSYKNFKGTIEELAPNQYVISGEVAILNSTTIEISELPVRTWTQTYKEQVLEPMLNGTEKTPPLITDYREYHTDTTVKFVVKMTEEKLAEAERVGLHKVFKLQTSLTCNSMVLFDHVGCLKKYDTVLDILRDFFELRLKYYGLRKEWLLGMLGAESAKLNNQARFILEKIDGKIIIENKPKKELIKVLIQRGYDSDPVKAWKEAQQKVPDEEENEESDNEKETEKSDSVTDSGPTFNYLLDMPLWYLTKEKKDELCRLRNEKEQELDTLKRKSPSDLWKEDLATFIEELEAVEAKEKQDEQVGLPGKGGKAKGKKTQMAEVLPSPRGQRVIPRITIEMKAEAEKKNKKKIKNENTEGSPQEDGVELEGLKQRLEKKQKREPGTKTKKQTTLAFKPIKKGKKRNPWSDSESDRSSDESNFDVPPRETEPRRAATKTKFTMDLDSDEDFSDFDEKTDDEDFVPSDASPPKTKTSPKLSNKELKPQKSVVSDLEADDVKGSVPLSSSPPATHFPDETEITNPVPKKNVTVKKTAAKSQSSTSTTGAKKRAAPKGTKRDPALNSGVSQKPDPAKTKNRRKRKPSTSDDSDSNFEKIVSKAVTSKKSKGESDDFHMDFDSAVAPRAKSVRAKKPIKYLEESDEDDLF

One experiment relates to MCF-7/ADR. The experiment is described as follows: Cell proliferation assay, MDR line MCF-7/ADR. The experiment is classed as cell-based, human. The following applies: 48 hrs exposure; less potent in MCF-7/ADR. The text has this: The MCF-7 cell line, the MDR cell line, and the MCF-7/ADR cell line were used. Alamar Blue™ was used to quantitate cell viability.
The target in a further experiment is T1, human Topo IIα (Homo sapiens, UniProt P11388).
T1 construct: purchased Topogen Inc. Columbus, Ohio
The experiment is described as follows: Topo IIα decatenation inhibition assay (kDNA, agarose gel). The experiment is classed as biochemical. The following applies: sample gel, FIG. 2; kDNA substrate.

`COc1cc([C@@H]2c3cc4c(cc3[C@@H](O[C@@H]3O[C@@H]5CO[C@@H](C)O[C@H]5[C@H](O)[C@H]3O)[C@H]3COC(=O)[C@H]23)OCO4)cc(OC)c1O` [etoposide]: the “shift in potency, resistant line MCF-7/ADR versus parent line MCF-7” value in the experiment with MCF-7/ADR came to 100 fold. Further, the “inhibition of Topo IIα decatenation” value against human Topo IIα was “partial inhibition”.
